From paper doi:10.1101/2021.01.29.428744

Biological target: AlexaFluor594-tagged α-SYN pre-formed fibrils (PFFs) (human), P37840
Assay: two-color coincidence detection
Conditions: remark: other sources report otherwise

B1: GABARAP, O95166 1-117 (natural protein)
chain: MKFVYKEEHPFEKRRSEGEKIRKKYPDRVPVIVEKAPKARIGDLDKKKYLVPSDLTVGQFYFLIRKRIHLRAEDALFFFVNNVIPPTSATMGQLYQEHHEEDFFLYIAYSDESVYGL
modifications: here or on the partner: maleimide-modified Alexa Fluor 594 dye on the cysteine thiol of A90C
  relative presence of GFP species in the aggregates: 0.32
